The results in this text go back to PMC5984341 (2018).

By Kd is commonly meant the free concentration of one partner at which half of the binding sites on the other are occupied at equilibrium, for simple one-to-one binding.

The target of assay [1] is cognate tau peptide of CBTAU-28.1 (not named for ITC and Octet) (human, biotin (position not given) in the Octet measurements). In words: ITC. (Isothermal titration calorimetry measures the heat released or taken up as one component is titrated into another.)
The target in assay [2] is T1, cognate tau peptide of CBTAU-27.1 (not named for ITC and Octet) (human, biotin (position not given) in the Octet measurements).
T1 chain: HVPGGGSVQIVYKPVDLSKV
Put plainly: ITC.

Positions count from the first letter of the chain named.

B1: CBTAU-28.1 (human IgG1) (antibody, V domains shown)
VH: QVQLQQSGAEVKKPGESLKISCEASGYSFTNYWIGWVRQMPGKGLEWMGIIYPGDSDTRYSPPFQGQVTITADRSITTAYLEWSSLKASDTAMYYCARVGRPSKGGWFDPWGQGTLVTVSS
VL: DIQMTQSPDSLAVSLGERATINCESSQTLLYSSNEKNYLAWYQQKPGQPPKLLISWASTPESGVPDRFSGSGSGTSFTLTISSLQAEDVAVYYCQQYYNSPYTFGQGTRLEIK
B1 came in with a Kd in assay [1] of 880 nM.

B2: dmCBTAU-28.1 (human IgG1), CBTAU-28.1 double mutant Ser32 to Arg / Glu35 to Lys (antibody, V domains shown)
VH: B1 VH
VL: B1 VL with S32R, E35K
In turn, B2 gave a Kd in assay [1] of 250 nM. Against the preceding molecule, the Kd is about 3.5-fold lower.

B3: CBTAU-27.1 (human IgG1) (antibody, V domains shown)
VH: QVQLVESGPEMRKPGESLKISCKTSGYIFSDYWTAWVRQLPGKGLQWMGIIYSGDSDTRYHPSVQGHVTMSTDSSLTTAYLQWSSLKASDTGIYYCARLDARVDAGWQLDSWGQGTLVTVSS
VL: DIQLTQSPDSLAVSLGERATINCKSSQSVFSRDNNKNYLAWYQHKSGQPPKLLFFWASSRESGVSDRFSGSGSGTDFTLTIDNLQAEDVALYYCQHYFNTPHNFGQGTKLEIK
B3 registered a Kd in assay [2] of 650 nM.

B4: dmCBTAU-27.1 (human IgG1), CBTAU-27.1 double mutant Ser27D to Tyr / Thr94 to Ile (antibody, V domains shown)
VH: B3 VH
VL: IQLTQSPDSLAVSLGERATINCKSSQSVFYRDNNKNYLAWYQHKSGQPPKLLFFWASSRESGVSDRFSGSGSGTDFTLTIDNLQAEDVALYYCQHYFNIPHNFGQGTKLEIK
In the case of B4, the Kd in assay [2] turned out to be 13 nM.
